How the values were obtained:
human PBMCs = assay: CD137 expression on the surface of IL-2-stimulated PBMCs (FACS); type: cell-based; details: 100 and 1000 IU/mL of IL-2, 72 hours, in vitro
Description: Fresh human PBMCs were separated from the whole blood by a density gradient centrifugation method using Ficoll Histopaque. […] After 72 hours, PBMCs were collected and CD137 on the cell surface was stained as follows.
IL-2-stimulated PBMCs were stained with panels of antibodies to detect cell surface markers and thereby identify subsets of cell types in the PBMCs. […] Subsets of cell types in the PBMCs were sorted by fluorescence-activated cell sorting (FACS). CD137 expression on the different subsets of PBMCs was detected, and the data was analyzed using FlowJo software.

Lewis lung cancer cells [1] = assay: Mouse model of Lewis lung cancer, ADG106 with IL-2 at low frequency high dose or continuous low dose; type: in vivo, C57BL/6 mice; details: for tolerability in mice: intraperitoneal; for anti-tumor activity (tumor volume): alone or with ADG106 2.5 mg/kg twice weekly for 4 doses
Source text: C57BL/6 mice were transplanted subcutaneously with 5×10^5 Lewis lung cancer cells. […] Tumor growth was monitored twice weekly and is reported as tumor volume±SEM over time.

Lewis lung cancer cells [2] = assay: Mouse model of Lewis lung cancer, ADG106 with continuous high dose IL-2; type: in vivo, C57BL/6 mice
Source text: C57BL/6 mice were transplanted subcutaneously with 5×10^5 Lewis lung cancer cells. […] Tumor growth was monitored twice weekly and reported as tumor volume±SEM over time.

IL-2: cytokine that regulates the activities of lymphocytes; recombinant human IL-2 in Example 1
CD137 expression on human NK, NKT, CD8+ and Treg cells (human PBMCs): strongly induced CD137 expression
tolerability in mice (Lewis lung cancer cells [1]; IL-2 continuous low dose (2.8×10^6 IU/m^2, twice a day for 5 consecutive days)): well tolerated
anti-tumor activity (tumor volume) (Lewis lung cancer cells [1]; IL-2 continuous low dose regimen (2.8×10^6 IU/m^2)): weak anti-tumor activity
tolerability in mice (Lewis lung cancer cells [1]; IL-2 low frequency high dose (twice a day, every 3 days for 4 doses)): well tolerated
anti-tumor activity (tumor volume) (Lewis lung cancer cells [1]; IL-2 low frequency high dose regimen): weak anti-tumor activity
toxicity in mice (Lewis lung cancer cells [2]; continuous high dose IL-2 1.4×10^7 IU/m^2 twice a day, alone or with ADG106 5 mg/kg twice weekly, intraperitoneal): significant toxicity
anti-tumor activity (tumor volume) (Lewis lung cancer cells [2]; continuous high dose IL-2, 1.4×10^7 IU/m^2 twice a day for 13 consecutive days, intraperitoneal): robust anti-tumor activity
animal death (animals of group) (Lewis lung cancer cells [2]; continuous high dose IL-2 alone, on Day 19): ⅛
early termination of all other sick animals (animals of group) (Lewis lung cancer cells [2]; continuous high dose IL-2 alone, on Day 22): ⅞

Source: patent US20230242663A1, “COMBINATION THERAPY COMPRISING ANTI-CD137 ANTIBODIES” (Adagene PTE. LTD., priority 2020, published 2023)
